Where two headings read alike, the source gives them in different places.
Biological target: T1, hNav 1.1 channel (Homo sapiens, UniProt P35498)
T1 construct: expressed in transfected cells
Test: Block of cloned hNav1.1 channel in CHO cells (IonWorks Quattro)
Format: cell-based
Method: Data was corrected for leak current.
The tonic block was calculated as:
% Block (Tonic)=(1−ITP1,TA/ITP1,Control)×100%,
where ITP1, Control and ITP1, TA are the inward peak Na^+ currents elicited by the TP1 in control and in the presence of a test article, respectively. 10 Hz Block—the frequency-dependent block at stimulation frequency 10 Hz was calculated as: […]
where ITP11, Control and ITP11, TA are the inward peak Na^+ currents elicited by the TP11 in control and in the presence of a test article, respectively. The inactivation state block is defined as the decrease in test pulse (TP12) current amplitude due to the conditioning depolarizing pulse (TP11). The inactivation state block was calculated as:
% Block (inactivation state)=(1−(ITP12,TA/ITP12,TA)×100%,
where ITP12, Control and ITP12, TA are the inward peak Na^+ currents elicited by the TP12 in control and in the presence of a test article, respectively. Concentration-response data for the blocks were fit to an equation of the following form: […]

## Mexiletine arginine amide
hNav1.1, 10 Hz block, rounded values, read-out: IC50 values (with the 10 Hz block)
  IC50: 811 µM
hNav1.1, relative to mexiletine
  IC50 fold above the parent: ~20 fold
hNav1.1 in CHO cells, frequency-dependent block at 10 Hz (TP11), read-out: IC50 10 Hz block
  IC50: 811 µM
hNav1.1 in CHO cells, inactivation state block (TP12), read-out: IC50 Inactivated state
  IC50: 328 µM
hNav1.1 in CHO cells, tonic block (TP1), read-out: IC50 Tonic block
  IC50: > 1000 µM
